The source of these data is article PMC8991199, “Promiscuity mapping of the S100 protein family using a high-throughput holdup assay” (Scientific Reports, 2022).

The Kd is a measure of binding affinity in units of concentration.

What all share (type): binding
Test [1] deals with S100A6 (Homo sapiens, UniProt P06703). Put plainly: direct fluorescence polarization (FP), S100A6. The note with it: S100A6, 50 nM labeled foldamer, 20 mM HEPES pH 7.5, 150 mM NaCl, 1 mM CaCl2, 0.5 mM TCEP, 0.01% Tween20, quadratic fit, mean ± SEM, three technical repeats, threshold 1 mM. As for the experimental part:
HTP (and also low-throughput) measurements generally need to be validated by an orthogonal approach to eliminate experimental artifacts. […] This way, we chose WL, IF, WW, YF, IL, VL, TW, RF, RR, TI, TM, and after resynthesizing with a fluorescent label at the C-terminus (Figs. S15–S26, Table S1), the S100ome was tested against the labeled foldamers by direct fluorescence polarization (FP) (Fig. 3A). In this assay, the association of the fluorescently labeled foldamer and the S100 protein of interest is monitored, through the change in polarization of the emitted light by the fluorophore upon the binding event. In direct FP, the presence of the fluorophore might change the binding affinity of some foldamers. […] Nevertheless, we assumed that the fluorophore would affect all foldamers that target the same binding site to the same degree, because the foldamer scaffold is rigid. Defining the threshold of detection at the dissociation constant of 1 mM, we identified 87 interactions between the selected foldamer fragments and the S100ome out of 220 possible interactions (Table 1, Fig. S4-14).
S100 proteins (UniProt accession codes: S100A1: P23297, S100A2: P29034, S100A3: P33764, S100A4: P26447, S100A5: P33763, S100A6: P06703, S100A7: P31151, S100A8: P05109, S100A9: P06702, S100A10: P60903, S100A11: P31949, S100A12: P80511, S100A13: Q99584, S100A14: Q9HCY8, S100A15: Q86SG5, S100A16: Q96FQ6, S100B: P04271, S100G: P29377, S100P: P25815 and S100Z: Q8WXG8) were expressed and purified with N-terminal His6-tag as described previously. Briefly, S100 proteins were cloned into a modified pET15b vector with a TEV protease cleavable N-terminal His6-tag and expressed in Escherichia coli BL21 (DE3) cells, followed by Ni^2+-affinity chromatography. For HU assay, S100 proteins were further purified by either hydrophobic interaction chromatography or ion exchange chromatography without the cleavage of the N-terminal His6-tag applying standard conditions. For direct FP measurements, the N-terminal His6-tag was cleaved, and the S100 proteins were purified by hydrophobic interaction chromatography, ion exchange chromatography or size exclusion chromatography. The quality of the recombinant proteins was checked by SDS-PAGE analysis in all cases. The concentration of the recombinant S100 proteins was determined by UV spectrophotometry using the absorbance of Tyr and Trp residues.
In direct fluorescence polarization assays, S100 proteins were diluted in a buffer containing 50 nM labeled foldamer, 20 mM HEPES pH 7.5, 150 mM NaCl, 1 mM CaCl2, 0.5 mM TCEP and 0.01% Tween20. The dilution series (50 µl) were divided into three technical repeats and transferred (15 µl) to a 384-well microplate. In competitive fluorescence polarization assays, the buffer applied in direct measurements was supplemented with the S100 protein of interest to reach a saturation of 60–80%. This mixture was titrated with the competitor (i.e. the unlabeled peptide). Fluorescence polarization was measured in 8 different S100 concentrations (one of which contained no S100 protein) on a Synergy H4 plate reader using 485 ± 20 nm and 528 ± 20 nm band-pass filters for excitation and emission, respectively. The Kd values were obtained by fitting the data from the FP measurements with the python-based ProFit software using quadratic and competitive binding equation for direct and competitive FP, respectively. The detection threshold was based on two parameters. First, we rejected all fitted dissociation constants above 1 mM.
Background: Fluorescence polarisation rises when a labelled molecule tumbles more slowly, as on binding a larger partner.

Test [2] has as its target S100A4 (Homo sapiens, UniProt P26447). Put plainly: direct fluorescence polarization (FP), S100A4. The note with it: S100A4, 50 nM labeled foldamer, 20 mM HEPES pH 7.5, 150 mM NaCl, 1 mM CaCl2, 0.5 mM TCEP, 0.01% Tween20, quadratic fit, mean ± SEM, three technical repeats, threshold 1 mM. As to the method:
(§1) HTP (and also low-throughput) measurements generally need to be validated by an orthogonal approach to eliminate experimental artifacts. […] This way, we chose WL, IF, WW, YF, IL, VL, TW, RF, RR, TI, TM, and after resynthesizing with a fluorescent label at the C-terminus (Figs. S15–S26, Table S1), the S100ome was tested against the labeled foldamers by direct fluorescence polarization (FP) (Fig. 3A). In this assay, the association of the fluorescently labeled foldamer and the S100 protein of interest is monitored, through the change in polarization of the emitted light by the fluorophore upon the binding event. […]
(§2) S100 proteins (UniProt accession codes: S100A1: P23297, S100A2: P29034, S100A3: P33764, S100A4: P26447, S100A5: P33763, S100A6: P06703, S100A7: P31151, S100A8: P05109, S100A9: P06702, S100A10: P60903, S100A11: P31949, S100A12: P80511, S100A13: Q99584, S100A14: Q9HCY8, S100A15: Q86SG5, S100A16: Q96FQ6, S100B: P04271, S100G: P29377, S100P: P25815 and S100Z: Q8WXG8) were expressed and purified with N-terminal His6-tag as described previously. […] The concentration of the recombinant S100 proteins was determined by UV spectrophotometry using the absorbance of Tyr and Trp residues.
(§3) In direct fluorescence polarization assays, S100 proteins were diluted in a buffer containing 50 nM labeled foldamer, 20 mM HEPES pH 7.5, 150 mM NaCl, 1 mM CaCl2, 0.5 mM TCEP and 0.01% Tween20. […]

Test [3] addresses S100A2 (Homo sapiens, UniProt P29034). Put plainly: direct fluorescence polarization (FP), S100A2. As to conditions: S100A2, 50 nM labeled foldamer, 20 mM HEPES pH 7.5, 150 mM NaCl, 1 mM CaCl2, 0.5 mM TCEP, 0.01% Tween20, quadratic fit, mean ± SEM, three technical repeats, threshold 1 mM. As for the experimental part:
as §1, §2, §3

Test [4] has as its target T1, S100Z (Homo sapiens, UniProt Q8WXG8).
T1 sequence (Q8WXG8 1-99): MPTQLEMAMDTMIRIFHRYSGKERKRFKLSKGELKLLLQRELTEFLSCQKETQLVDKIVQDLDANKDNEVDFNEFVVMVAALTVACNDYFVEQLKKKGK
Briefly: direct fluorescence polarization (FP), S100Z. As to conditions: 50 nM labeled foldamer, 20 mM HEPES pH 7.5, 150 mM NaCl, 1 mM CaCl2, 0.5 mM TCEP, 0.01% Tween20, quadratic fit, mean ± SEM, three technical repeats, threshold 1 mM. As to the method: as §1, §2, §3

Test [5] has as its target T2, S100P (Homo sapiens, UniProt P25815).
T2 sequence (P25815 1-95): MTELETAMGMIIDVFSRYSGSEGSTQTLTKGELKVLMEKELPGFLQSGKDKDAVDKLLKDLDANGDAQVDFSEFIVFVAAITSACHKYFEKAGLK
Put plainly: direct fluorescence polarization (FP), S100P. The note with it: 50 nM labeled foldamer, 20 mM HEPES pH 7.5, 150 mM NaCl, 1 mM CaCl2, 0.5 mM TCEP, 0.01% Tween20, quadratic fit, mean ± SEM, three technical repeats, threshold 1 mM. As for the experimental part: as §1, §2, §3

Test [6] concerns the target S100A10 (Homo sapiens, UniProt P60903). Briefly: direct fluorescence polarization (FP), S100A10. As to conditions: S100A10, 50 nM labeled foldamer, 20 mM HEPES pH 7.5, 150 mM NaCl, 1 mM CaCl2, 0.5 mM TCEP, 0.01% Tween20, quadratic fit, mean ± SEM, three technical repeats, threshold 1 mM. As to the method:
as §1, §2, §3

The target of test [7] is T3, S100A1 (Homo sapiens, UniProt P23297).
T3 sequence (P23297 1-94): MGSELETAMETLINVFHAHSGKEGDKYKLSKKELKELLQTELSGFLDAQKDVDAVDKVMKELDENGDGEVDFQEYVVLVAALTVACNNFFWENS
Briefly: direct fluorescence polarization (FP), S100A1. As to conditions: S100A1, 50 nM labeled foldamer, 20 mM HEPES pH 7.5, 150 mM NaCl, 1 mM CaCl2, 0.5 mM TCEP, 0.01% Tween20, quadratic fit, mean ± SEM, three technical repeats, threshold 1 mM. As for the experimental part: as §1, §2, §3

Consider `N=C(N)NCCC[C@@H](CC(=O)N[C@H]1CCCC[C@@H]1C(=O)N[C@H]1CCCC[C@@H]1C(=O)N[C@H](CC(=O)N[C@H]1CCCC[C@@H]1C(=O)NCC(=O)N[C@@H](CCCCNC(=O)c1ccc2c(c1)C1(OC2=O)c2ccc(O)cc2Oc2cc(O)ccc21)C(N)=O)Cc1ccccc1)NC(=O)[C@H]1CCCC[C@@H]1N` [fRF], for which the Kd in test [1] stood at 290 ± 14 µM.

Take `NC(=O)[C@H](CCCCNC(=O)c1ccc2c(c1)C1(OC2=O)c2ccc(O)cc2Oc2cc(O)ccc21)NC(=O)CNC(=O)[C@H]1CCCC[C@@H]1NC(=O)C[C@H](Cc1c[nH]c2ccccc12)NC(=O)[C@H]1CCCC[C@@H]1NC(=O)[C@H]1CCCC[C@@H]1NC(=O)C[C@H](Cc1c[nH]c2ccccc12)NC(=O)[C@H]1CCCC[C@@H]1N` [fWW]: in test [2], the Kd is 160 ± 9.8 µM. For the compound `NC(=O)[C@H](CCCCNC(=O)c1ccc2c(c1)C1(OC2=O)c2ccc(O)cc2Oc2cc(O)ccc21)NC(=O)CNC(=O)[C@H]1CCCC[C@@H]1NC(=O)C[C@H](Cc1ccccc1)NC(=O)[C@H]1CCCC[C@@H]1NC(=O)[C@H]1CCCC[C@@H]1NC(=O)C[C@H](Cc1ccc(O)cc1)NC(=O)[C@H]1CCCC[C@@H]1N` [fYF], the Kd in test [1] worked out at 42 ± 3.3 µM.

On to `C[C@@H](O)[C@@H](CC(=O)N[C@H]1CCCC[C@@H]1C(=O)N[C@H]1CCCC[C@@H]1C(=O)N[C@H](CC(=O)N[C@H]1CCCC[C@@H]1C(=O)NCC(=O)N[C@@H](CCCCNC(=O)c1ccc2c(c1)C1(OC2=O)c2ccc(O)cc2Oc2cc(O)ccc21)C(N)=O)Cc1c[nH]c2ccccc12)NC(=O)[C@H]1CCCC[C@@H]1N` [fTW], for which the Kd in test [3] is 170 ± 5.5 µM; in test [1], 160 ± 8.1 µM; in test [4], 520 ± 59 µM; in test [5], 170 ± 9.8 µM; in test [6] it was 170 ± 5.6 µM. For `CC[C@H](C)[C@@H](CC(=O)N[C@H]1CCCC[C@@H]1C(=O)N[C@H]1CCCC[C@@H]1C(=O)N[C@H](CC(=O)N[C@H]1CCCC[C@@H]1C(=O)NCC(=O)N[C@@H](CCCCNC(=O)c1ccc2c(c1)C1(OC2=O)c2ccc(O)cc2Oc2cc(O)ccc21)C(N)=O)Cc1ccccc1)NC(=O)[C@H]1CCCC[C@@H]1N` [fIF], the Kd in test [1] amounted to 57 ± 1.8 µM. As to `CC(C)C[C@@H](CC(=O)N[C@H]1CCCC[C@@H]1C(=O)NCC(=O)N[C@@H](CCCCNC(=O)c1ccc2c(c1)C1(OC2=O)c2ccc(O)cc2Oc2cc(O)ccc21)C(N)=O)NC(=O)[C@H]1CCCC[C@@H]1NC(=O)[C@H]1CCCC[C@@H]1NC(=O)C[C@@H](NC(=O)[C@H]1CCCC[C@@H]1N)C(C)C` [fVL], in test [1], the Kd came out at 170 ± 13 µM.

As for `CC[C@H](C)[C@@H](CC(=O)N[C@H]1CCCC[C@@H]1C(=O)N[C@H]1CCCC[C@@H]1C(=O)N[C@H](CC(=O)N[C@H]1CCCC[C@@H]1C(=O)NCC(=O)N[C@@H](CCCCNC(=O)c1ccc2c(c1)C1(OC2=O)c2ccc(O)cc2Oc2cc(O)ccc21)C(N)=O)CC(C)C)NC(=O)[C@H]1CCCC[C@@H]1N` [fIL], the Kd in test [1] worked out at 82 ± 5.4 µM; in test [7] it was 160 ± 24 µM.
